AlphaSeq binding of Ab-14 heavy chain variants to a spike HR2 peptide

The target is the same throughout: PDVDLGDISGINAS, from the HR2 region of SARS-CoV-2 spike.

Parent: Ab-14, a human scFv built as VH, three GGGGS repeats, VL. Only the CDRs of the heavy chain vary.
VH: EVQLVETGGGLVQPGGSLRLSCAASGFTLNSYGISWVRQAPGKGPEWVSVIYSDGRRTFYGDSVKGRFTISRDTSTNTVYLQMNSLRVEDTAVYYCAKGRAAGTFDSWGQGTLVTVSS
VL: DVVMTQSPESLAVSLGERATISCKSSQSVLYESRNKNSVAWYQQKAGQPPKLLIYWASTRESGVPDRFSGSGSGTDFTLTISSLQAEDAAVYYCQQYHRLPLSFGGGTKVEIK

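The starting antibody came from a phage panning campaign against this peptide. Designed CDR sequences, proposed from the first random library and measured here. Their group label is 14H_GPLM_Gen (GPLM: also part of the Gaussian process libraries; Gen: genetic algorithm; a sequence that several methods proposed may carry one label only). The assay is AlphaSeq: two haploid yeast populations carry antibody and antigen on their surface. The frequency of each diploid, read from paired DNA barcodes, reflects how well the two displayed proteins bind. Scores were corrected for input abundance and mapped to Kd with protein pairs of known affinity run in the same pool. The assay was run in six technical replicates.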

Each variant is given by its three heavy chain CDRs, as the data file delimits them; those of the parent are GFTLNSYGIS, VIYSDGRRTFYGDSVK, GRAAGTFDS. Values are log10 of the apparent Kd in nM; lower means stronger binding. The mean shown is taken over the replicates in which the pair was detected. "ND" means that the variant was in the library but no mating with the target was seen in that replicate; the authors take this as a sign of poor binding, and no number exists. The authors averaged sequences with at least three values out of six and counted those with two or fewer as poor binders.

CDR-H1 | CDR-H2 | CDR-H3 | replicates, log10 nM | mean, log10 nM | signal with controls
GFSLNSYGIS | VIYSDGRRTFYIDDVK | GQAAGTFDS | 0.74 / 0.61 / 0.68 / 0.21 / 0.27 / 0.44 | 0.49 | 0 of 18
GFTLESYGIS | VIYADGRRTFYGDRVK | GRAAGTFDS | ND / ND / ND / ND / ND / ND | ND | 0 of 18
GFSLNEYGIS | VIYSDGRRTFYHDSVK | GRAAGTFDK | 1.41 / 0.10 / 0.49 / -0.01 / -0.02 / 0.55 | 0.42 | 1 of 18 (1.32)
GFSLNSYGIS | VIYSDGRRTFYIDSVK | GQEAGTFDS | 1.29 / 0.78 / 1.09 / 1.67 / 0.99 / 0.52 | 1.06 | 0 of 18
GFSLNTYGIS | VIYSDGRRTFYADSVK | GTAAGTFDS | 0.04 / -0.09 / -0.24 / -0.32 / 0.03 / -0.03 | -0.10 | 0 of 18
GFSLNSYGIS | VIYSDGRRTFYGDSVK | GRVAGTFDV | 1.26 / 0.07 / 1.56 / 0.55 / 0.19 / 0.37 | 0.67 | 0 of 18
GFSLNSYGIS | VIYSDGRRTFYSDSVK | GRLAGTFDS | 0.61 / 0.24 / 0.28 / 0.27 / 0.25 / 0.51 | 0.36 | 0 of 18
GFDLNSYGIS | VIYSDGRRTFYGDSVK | GRHAGTFDS | 0.41 / 0.46 / 0.86 / 0.25 / 1.44 / 0.82 | 0.71 | 2 of 18 (1.27)
GFSLNSYGIS | VIYSDGRRTFYKDSVK | GHAAGTFDS | 1.91 / 1.85 / ND / 1.82 / 1.78 / 1.15 | 1.70 | 0 of 18
GFSLNKYGIS | VIYSDGRRTFYGDSVK | GQAAGTFDS | 2.00 / 0.73 / 0.90 / 1.67 / 2.28 / 1.83 | 1.57 | 1 of 18 (1.79)
GFSLNSYGIS | VIYSDGRRTFYADSVK | GTEAGTFDS | 0.50 / ND / -0.01 / -0.06 / 1.37 / 1.17 | 0.59 | 0 of 18
GFNLNSYGIS | VIYSDGRRTFYSDSVK | GEAAGTFDS | ND / ND / ND / ND / ND / ND | ND | 0 of 18
GFSLNSYGIS | VIYSDGRRTFYGDSVK | GRYAGTFDS | 1.07 / 0.61 / 0.93 / 0.85 / 1.23 / 1.35 | 1.01 | 0 of 18
GFTLNSYGIS | VIYSDGLRTFYADSVK | GRTAGTFDS | 0.72 / 0.59 / 0.56 / 0.41 / 0.42 / 0.70 | 0.57 | 1 of 18 (2.44)
GFSLNDYGIS | VIYSDGRRTFYGDEVK | GRTAGTFDS | ND / ND / ND / ND / ND / ND | ND | 0 of 18
GFHLNSYGIS | VIYSDGRRTFYSDSVK | GRTAGTFDS | 0.93 / 0.54 / 0.40 / 0.66 / 0.79 / 0.75 | 0.68 | 0 of 18
GFELNSYGIS | VIYSDGRRTFYGDSVK | GRVAGTFDT | 1.57 / 1.41 / 3.63 / 1.81 / 0.79 / 1.48 | 1.78 | 0 of 18
GFSLNEYGIS | VIYSDGRRTFYHDSVK | GTAAGTFDS | 0.53 / -0.35 / -0.07 / -0.39 / -0.26 / 0.05 | -0.08 | 0 of 18
GFNLNSYGIS | VIYSDGRRTFYADSVK | GSAAGTFDS | -0.31 / 0.87 / 0.33 / -0.45 / -0.02 / 0.49 | 0.15 | 2 of 18 (0.98)
GFSLNNYGIS | VIYSDGRRTFYTDSVK | GRTAGTFDS | 0.52 / 0.52 / 0.58 / 0.07 / 0.98 / 0.99 | 0.61 | 0 of 18
GFWLNEYGIS | VIYSDGRRTFYADSVK | GQAAGTFDS | 1.11 / 3.35 / ND / 2.07 / 1.23 / 1.32 | 1.82 | 1 of 18 (1.86)
GFTLNDYGIS | VIYSDGRRTFYSDSVK | GRTAGTFDS | 0.75 / -0.49 / 1.22 / ND / -0.12 / 0.35 | 0.34 | 0 of 18
GFSLNSYGIS | VIYSDGRRTFYGDSVK | GMVAGTFDS | 0.21 / 0.18 / -0.05 / 0.12 / 0.03 / 0.21 | 0.11 | 0 of 18
GFTLNSYGIS | VIYSDGRRTFYADSVK | GQVAGTFDS | 0.73 / 0.29 / 0.56 / 0.21 / 0.35 / 0.48 | 0.44 | 1 of 18 (3.30)
GFDLNSYGIS | VIYSDGRRTFYCDSVK | GRAAGTFDS | ND / ND / ND / ND / ND / ND | ND | 0 of 18
GFSLNSYGIS | VIYSDGRRTFYADKVK | GRAAGTFDS | 0.78 / 0.74 / 0.59 / 0.67 / 0.72 / 0.83 | 0.72 | 0 of 18
GFELNSYGIS | VIYSDGRRTFYADSVK | GRMAGTFDS | 0.58 / 0.37 / 1.27 / 0.11 / -0.11 / 0.55 | 0.46 | 0 of 18
GFSLNSYGIS | VIYSDGRRTFYADSVK | GRMAGTFDS | 0.35 / 0.29 / 0.13 / 0.52 / 0.50 / 0.21 | 0.33 | 1 of 18 (2.21)
GFSLNSYGIS | VIYSDGRRTFYGDSVK | GQAAGTFDT | ND / 1.79 / 1.95 / 1.91 / 2.68 / 1.80 | 2.03 | 1 of 18 (2.41)
GFSLNSYGIS | VIYSDGRRTFYVDSVK | GRNAGTFDS | 0.96 / 0.81 / 0.48 / 1.42 / 0.53 / 0.80 | 0.83 | 0 of 18

Repeated from above, the 3 best binders with a signal in all replicates:

CDR-H1	CDR-H2	CDR-H3	replicates, log10 nM	mean, log10 nM	signal with controls
GFSLNTYGIS	VIYSDGRRTFYADSVK	GTAAGTFDS	0.04 / -0.09 / -0.24 / -0.32 / 0.03 / -0.03	-0.10	0 of 18
GFSLNEYGIS	VIYSDGRRTFYHDSVK	GTAAGTFDS	0.53 / -0.35 / -0.07 / -0.39 / -0.26 / 0.05	-0.08	0 of 18
GFSLNSYGIS	VIYSDGRRTFYGDSVK	GMVAGTFDS	0.21 / 0.18 / -0.05 / 0.12 / 0.03 / 0.21	0.11	0 of 18

Three control strains display no target. For all heavy chain designs, 1% of the pairings with them gave a signal, with a median of 2.08 and one signal in twenty below 0.84, so weak values seen in few replicates may be background. For each scFv, signals with the empty controls are counted beside the result, with their mean in brackets. Of ten entries with the parent sequence, four were seen in most replicates (averages 0.34 to 2.37), three in one and three in none, so single entries are noisy. Values of this round are not directly comparable with the first-round values of the same sequences.

Data: MIT Lincoln Laboratory AlphaSeq set, Li et al. 2023, doi:10.1038/s41467-023-39022-2, as distributed in FLAb.